From PubChem BioAssay AID1224863 (Southern Research Institute, 2016)
About 15 (0.1%) of roughly 10,000 compounds were called active.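 The calls were made as follows: active = highest signal at least 8 times the median of untreated cell-only control wells at some dose; inactive = the rest.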 These entries were drawn from the full list.

Protein sequences, listed by entry. Tags and fused reporters are not part of them. Chains listed by the source or under a name are the forms on record and can include a tag or linker.
UniProt P13569, with tags, fused parts or gaps F508del: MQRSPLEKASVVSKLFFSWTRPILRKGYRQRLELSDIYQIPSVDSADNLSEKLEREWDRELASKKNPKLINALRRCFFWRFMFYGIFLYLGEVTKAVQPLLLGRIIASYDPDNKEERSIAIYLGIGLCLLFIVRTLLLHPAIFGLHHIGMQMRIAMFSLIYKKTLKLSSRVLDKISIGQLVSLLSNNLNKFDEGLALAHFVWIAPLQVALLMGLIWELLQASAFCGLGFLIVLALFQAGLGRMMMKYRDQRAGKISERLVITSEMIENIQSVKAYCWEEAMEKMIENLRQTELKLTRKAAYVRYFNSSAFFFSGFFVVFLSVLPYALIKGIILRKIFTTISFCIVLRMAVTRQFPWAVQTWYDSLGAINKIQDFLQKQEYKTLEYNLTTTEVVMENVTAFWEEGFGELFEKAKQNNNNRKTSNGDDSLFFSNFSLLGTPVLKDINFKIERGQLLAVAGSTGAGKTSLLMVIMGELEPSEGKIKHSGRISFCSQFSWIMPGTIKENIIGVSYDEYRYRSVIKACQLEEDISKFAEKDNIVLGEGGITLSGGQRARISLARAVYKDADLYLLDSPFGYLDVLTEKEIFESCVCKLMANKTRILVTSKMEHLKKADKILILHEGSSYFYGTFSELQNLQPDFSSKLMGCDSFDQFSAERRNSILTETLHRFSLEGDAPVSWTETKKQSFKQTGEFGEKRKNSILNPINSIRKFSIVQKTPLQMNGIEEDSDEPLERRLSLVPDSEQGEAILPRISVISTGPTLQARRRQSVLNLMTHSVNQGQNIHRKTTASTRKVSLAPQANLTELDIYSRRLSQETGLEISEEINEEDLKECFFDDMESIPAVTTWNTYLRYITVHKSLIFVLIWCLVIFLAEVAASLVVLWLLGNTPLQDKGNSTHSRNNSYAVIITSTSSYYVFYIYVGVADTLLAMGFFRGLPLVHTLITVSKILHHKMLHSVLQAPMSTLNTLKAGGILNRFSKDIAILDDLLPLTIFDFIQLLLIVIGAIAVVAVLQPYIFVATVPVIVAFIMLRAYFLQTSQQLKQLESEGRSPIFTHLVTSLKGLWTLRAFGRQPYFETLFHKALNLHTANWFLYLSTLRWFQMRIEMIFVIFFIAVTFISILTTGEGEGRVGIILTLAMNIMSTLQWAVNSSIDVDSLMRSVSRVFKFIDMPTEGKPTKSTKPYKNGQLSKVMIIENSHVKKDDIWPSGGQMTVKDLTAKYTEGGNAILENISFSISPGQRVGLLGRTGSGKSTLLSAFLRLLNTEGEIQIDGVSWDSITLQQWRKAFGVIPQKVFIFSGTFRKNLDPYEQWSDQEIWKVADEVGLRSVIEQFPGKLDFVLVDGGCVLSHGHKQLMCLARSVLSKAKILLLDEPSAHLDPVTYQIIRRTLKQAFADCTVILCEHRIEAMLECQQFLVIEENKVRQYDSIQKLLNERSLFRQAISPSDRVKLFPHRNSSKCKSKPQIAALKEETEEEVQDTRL

Legend:
[1] = compounds raising F508del-CFTR protein level – cell-based, HeLa F508del-CFTR, immunofluorescence, viability, primary screen (AID 1224863); settings: immunofluorescence total CFTR, 24 h, stronger effect = higher value; min viability: measured here: HeLa viability, alamarBlue, dose 20, library dosed in µg/mL unless noted; viability: measured here: primary viability 10 ug/mL, library dosed in µg/mL unless noted;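 as to fold increase: total CFTR protein by anti-CFTR immunofluorescence in fixed cells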;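 as to max fold increase: total CFTR protein by anti-CFTR immunofluorescence in fixed cells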
[2] = biological target: Cystic fibrosis transmembrane conductance regulator (Homo sapiens) (UniProt P13569); assay: as above; settings: immunofluorescence total CFTR, 24 h; fold increase: measured here: primary screen 10 ug/mL, library dosed in µg/mL, stronger effect = higher value unless noted; max fold increase: dose 10, library dosed in µg/mL, stronger effect = higher value unless noted; outcome: library dosed in µg/mL unless noted

Row | SMILES | viability [1] | fold increase [2] | outcome [2] | min viability [1] | max fold increase [2]
1 | N#Cc1c(/C=C/c2ccc3c(c2)OCCO3)cc(-c2cccc(Cl)c2)n2c1nc1ccccc12 | 99% | 1.16 | inactive |  | 
2 | CC(C)CN1CC(C(=O)Nc2ccc3c(c2)OC2(CCCC2)O3)CC1=O (stereo not drawn) | 83% | 1.08 | inactive |  | 
3 | O=C(OCc1cc(Cl)c2c(c1)OCO2)c1ccco1 | 90% | 0.99 | inactive |  | 
4 | O=C(Cn1ncc(Cl)c(Cl)c1=O)N1CCNC1=O | 78% | 1.56 |  | 70% | 3.11 (inactive)
5 | CCOCCCNc1sc(S(C)(=O)=O)nc1S(=O)(=O)c1ccc(C)cc1 | 93% | 1.05 | inactive |  | 
6 | CC(C#N)Sc1nnnn1-c1ccc(Cl)cc1 (stereo not drawn) | 98% | 0.96 | inactive |  | 
7 | C=CCOc1ccccc1/C=C(/C#N)c1nc(N)nc(N(C)C)n1 | 85% | 1.09 | inactive |  | 
8 | N#Cc1ccc(/C=C2\CSc3ccccc3C2=O)cc1 | 56% | 0.79 | inactive |  | 
9 | CC1(c2ccc3c(c2)OCO3)NC(=O)N(Cc2ccc3c(c2)OCO3)C1=O (stereo not drawn) | 100% | 0.99 | inactive |  | 
10 | CS(=O)(=O)NC1CCN(CC(=O)NC2CC2)CC1 | 105% | 1.17 | inactive |  | 
11 | S=c1n(CN(C2CCCC2)C2CC2)nc(N2CCOCC2)n1-c1ccccc1 | 102% | 1.03 | inactive |  | 
12 | CC(C)N1C(=O)c2ccc(C(=O)Nc3ccc(I)cc3)cc2S1(=O)=O | 92% | 0.96 | inactive |  | 
13 | Cc1cnc(NC(=O)COCC2CC2)s1 | 100% | 1.01 | inactive |  | 
14 | CCN1C(=O)c2ccccc2N2C(=O)CCC12C(=O)NC(C)c1ccc(F)cc1 (stereo not drawn) | 97% | 0.96 | inactive |  | 
15 | CCC(C)(C)NCC(=O)N1c2ccccc2NC(=O)C1(C)C | 93% | 1.11 | inactive |  | 
16 | NC(=O)C1CCCN1S(=O)(=O)c1ccc(Cl)s1 (stereo not drawn) | 97% | 1.06 | inactive |  | 
17 | Cn1ncc2c(NCC(=O)NC(C)(C)C)ncnc21 | 91% | 1.05 | inactive |  | 
18 | CS(=O)(=O)c1ccc(Oc2ccc3c(c2)OCCO3)c([N+](=O)[O-])c1 | 92% | 0.98 | inactive |  | 
19 | CCn1c(SCCS(=O)(=O)c2ccc(Br)cc2)nc2ccccc21 | 74% | 0.65 | inactive |  | 
20 | CN1CCN(C(=O)C2CCN(C(=O)OCC(F)(F)F)CC2)c2nc3ccccc3nc21 | 85% | 0.99 | inactive |  | 
21 | CN(C)S(=O)(=O)N1CCN(Cc2ccccc2CN2CCN(S(=O)(=O)N(C)C)CC2)CC1 | 94% | 0.9 | inactive |  | 
22 | CS(=O)(=O)NC1CCCN(c2nc(-c3ccccc3)nc3ccccc23)C1 (stereo not drawn) | 91% | 0.95 | inactive |  | 
23 | COc1cc(OC)cc(-c2nnc(SCCc3ccccc3)o2)c1 | 105% | 0.99 | inactive |  | 
24 | FC(F)(F)c1cnc(Nc2ccc3c(c2)OCCO3)c(Cl)c1 | 81% | 0.98 | inactive |  | 
25 | CC1CCC2(CC1)NC(=O)N(CN1CCC(C(=O)c3ccc4c(c3)OCCO4)CC1)C2=O (stereo not drawn) | 97% | 1.04 | inactive |  | 
26 | O=C(OCCOc1ccc(Br)cc1)C1(c2cccc(F)c2)CCCC1 | 77% | 0.97 | inactive |  | 
27 | C=CCn1c(C)cc(-c2csc(NC(=O)C3CC3)n2)c1C | 93% | 1.02 | inactive |  | 

Row | SMILES | viability [1] | fold increase [2] | outcome [2] | min viability [1] | max fold increase [2]
28 | Cn1cc(C#N)c(=O)n(CC(=O)Nc2sccc2C(N)=O)c1=O | 104% | 1.07 | inactive |  | 
29 | O=S(=O)(Nc1ccc(Cl)c(S(=O)(=O)N2CCOCC2)c1)c1ccc2ccccc2c1 | 93% | 1.11 | inactive |  | 
30 | Cc1cc(C(=O)COc2cc(C(F)(F)F)cc(C(F)(F)F)c2)c(C)n1Cc1ccc2c(c1)OCO2 | 90% | 1.11 | inactive |  | 
31 | CCCCOCCCNS(=O)(=O)c1ccc(S(=O)(=O)C(F)F)cc1 | 80% | 0.94 | inactive |  | 
32 | Cc1ccsc1C(=O)N1CCN(S(=O)(=O)N(C)C2CCCCC2)CC1 | 83% | 0.92 | inactive |  | 
33 | O=C1c2ccccc2C(O)(c2ccc(Cl)cc2)N1CCSCc1ccco1 (stereo not drawn) | 77% | 0.9 | inactive |  | 
34 | Cn1cc(S(=O)(=O)NC2(c3ccc4c(c3)OCCO4)CCCC2)c(=O)n(C)c1=O | 94% | 1.05 | inactive |  | 
35 | O=C(NC1CCCCCC1)C1CC=CCC1 (stereo not drawn) | 96% | 1.02 | inactive |  | 
36 | O=c1c2ccccc2nnn1COc1ccccc1Cl | 116% | 0.98 | inactive |  | 
37 | CCOCCSc1nnc(-c2ccccc2)n1C | 106% | 1.04 | inactive |  | 
38 | Fc1ccc2sc(CNc3ccc4nnnn4n3)cc2c1 | 105% | 1.2 | inactive |  | 
39 | CCN(CC)C(=O)C(C)NC(=O)c1c(C)oc(-n2cccc2)c1C#N (stereo not drawn) | 90% | 0.95 | inactive |  | 
40 | Cc1noc(C)c1CN1CCCC(NS(C)(=O)=O)C1 (stereo not drawn) | 110% | 1.04 | inactive |  | 
41 | CC(C)n1nnnc1SCc1ccc([N+](=O)[O-])cc1 | 91% | 0.94 | inactive |  | 
42 | Clc1ccc(CN2CCN(c3ccc(Br)cn3)CC2)s1 | 105% | 1.02 | inactive |  | 
43 | O=C(NCCc1ccccc1F)NC1CCSc2ccccc21 (stereo not drawn) | 95% | 1.02 | inactive |  | 
44 | COc1ccccc1-c1noc(CSC23CC4CC(CC(C4)C2)C3)n1 | 70% | 0.79 | inactive |  | 
45 | O=S(=O)(Nc1ccc2c(c1)OCCO2)c1cc(F)cc(F)c1 | 97% | 0.92 | inactive |  | 
46 | O=C(NCCc1ccc2c(c1)OCCO2)NCc1cccnc1OC1CCCC1 | 91% | 0.85 | inactive |  | 
47 | CCC1CCC2(CC1)NC(=O)N(CC(=O)NCC1CCCO1)C2=O (stereo not drawn) | 102% | 0.98 | inactive |  | 
48 | Cc1[nH]c2ccccc2c1C(=O)C(C)OC(=O)C12CC3CC(C1)CC(c1ccccc1)(C3)C2 (stereo not drawn) | 85% | 0.91 | inactive |  | 
49 | CC(C)c1ccc(C(NC(=O)CN2C(=O)NC(C)(c3ccc4c(c3)OCO4)C2=O)C(C)C)cc1 (stereo not drawn) | 81% | 0.84 | inactive |  | 
50 | Cn1nnn(CN2CCN(c3ccccc3)CC2)c1=S | 101% | 1.1 | inactive |  | 
51 | CNc1nnc(Sc2nc3cc(C)nn3c3ccccc23)s1 | 97% | 1.1 | inactive |  | 
52 | CN(CC(=O)NC(=O)NCCC1=CCCCC1)Cc1ccc(Cl)s1 | 85% | 0.92 | inactive |  | 
53 | C#CCOc1ccc(CNC(C)c2ccc(Br)cc2)cc1OCC (stereo not drawn) | 76% | 0.94 | inactive |  | 
54 | CN(Cc1ccccc1Cl)Cn1ncn(-c2cccc(Cl)c2)c1=S | 105% | 1.04 | inactive |  | 
